Test [1] addresses T1, NAD-dependent protein deacetylase sirtuin-3, mitochondrial (Homo sapiens) (UniProt Q9NTG7).
T1 sequence (whole entry): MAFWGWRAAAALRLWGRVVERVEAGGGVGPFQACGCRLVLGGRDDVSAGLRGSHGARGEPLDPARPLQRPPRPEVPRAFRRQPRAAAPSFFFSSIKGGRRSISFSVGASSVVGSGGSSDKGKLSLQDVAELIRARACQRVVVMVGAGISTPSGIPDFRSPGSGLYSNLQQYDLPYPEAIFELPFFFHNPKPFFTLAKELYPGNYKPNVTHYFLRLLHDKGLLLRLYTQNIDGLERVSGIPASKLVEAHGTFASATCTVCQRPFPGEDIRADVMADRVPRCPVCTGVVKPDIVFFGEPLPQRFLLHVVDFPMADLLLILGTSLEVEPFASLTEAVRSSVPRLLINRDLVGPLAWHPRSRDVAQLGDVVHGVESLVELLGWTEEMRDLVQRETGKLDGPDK
In words: Modulation of human Sirt3 (118 to 399 residues) deacetylation activity under non-steady state assessed as substrate deacetylation at low enzyme concentration with [E]0/[NAD+]0 ratio of 0.1 at 10 uM incubated for 5 mins using MnSOD peptide as substrate in presence of NAD+ by HPLC-assay relative to control. The conditions noted are these: filed as modulator.

Test [2] concerns the target T1, NAD-dependent protein deacetylase sirtuin-3, mitochondrial (Homo sapiens). Nature of the test: Modulation of human Sirt3 (118 to 399 residues) deacetylation activity under non-steady state assessed as substrate deacetylation at low enzyme concentration with [E]0/[NAD+]0 ratio of 0.1 at 25 uM incubated for 5 mins using MnSOD peptide as substrate in presence of NAD+ by HPLC-assay relative to control. The conditions noted are these: filed as modulator.

Our source for the Activity values is ChEMBL document CHEMBL5214958, “Discovery of novel compounds as potent activators of Sirt3” (Bioorg Med Chem, 2022).

Structures are written as SMILES.

On to `CCCCNC(=O)COc1ccc2c(c1)CCc1ccccc1C2NC(=O)CCCOc1cc([N+](=O)[O-])c(C(C)O)cc1OC` (configuration not stated), for which the Activity in test [1] is 109%; in test [2], 122%.
